Experimental findings from ChEMBL document CHEMBL5252531, “2015 Philip S. Portoghese Medicinal Chemistry Lectureship. Curing Hepatitis C Virus Infection with Direct-Acting Antiviral Agents: The Arc of a Medicinal Chemistry Triumph” (J Med Chem, 2016) are described below.

Structures are written as SMILES.

A short description of series [1]: in vivo. As to conditions: dog, po.
Series [2] can be described thus: in vivo. The settings on record: Sprague-Dawley, rat, liver/plasma, po, 20 mg/kg.
Series [3] is described as follows: in vivo. As to conditions: cynomolgus monkey, liver/plasma, po, 20 mg/kg.

Turning to `C=C[C@@H]1C[C@]1(NC(=O)[C@@H]1C[C@@H](Oc2ncc(OC)c3ccc(Cl)cc23)CN1C(=O)[C@@H](NC(=O)OC(C)(C)C)C(C)(C)C)C(=O)NS(=O)(=O)C1CC1`, in the series “in vivo [1]”, the bioavailability (commonly dose-corrected exposure relative to a reference, in per cent) was determined as 61%. In addition, the values for the concentration ratio (Kp) at 24 h in “in vivo [2]” and in “in vivo [3]” were 300 and 410, respectively.
